Tested on: rabbit pulmonary artery, tyramine-induced noradrenaline release
Conditions: in vitro, 30 minutes equilibration

**Q.** For CC(Cc1ccccc1)NCCBr (stereo not shown), which “IC50, inhibition of noradrenaline releasing effect of tyramine” value is on record?
**A.** The value was “can not be given”.

From patent US5075338A (priority 1986, dated 1991)
